Test results reported in patent US20110224182A1, “SALTS OF (3-0-(3',3'-[…]) BETULINIC ACID AND SOLID STATE FORMS THEREOF” (Myriad Pharmaceuticals, Incorporated, priority 2007, published 2011).

Test: In vivo pharmacokinetic studies (Method H), plasma levels by LC-MS/MS
Design: species or system male Sprague-Dawley rats
Conditions: rat, oral gavage, relative to DSB-2 NMG
Description: Method H—In Vivo Pharmacokinetic Studies
In vivo experiments were conducted in male Sprague-Dawley rats having a body mass of 225 g to 275 g with an appropriate cannula surgically inserted. Rats were supplied food and water ad libitum until 12 hours before dosing when food was removed. Food was withheld until four hours post-dosing. Water was available ad libitum. Each of group of rats consisted of 3 rats.
Dosing solutions were prepared the same day as dose administration. […] The administered dose of each salt was 1 mg/kg for intravenous administration and 10 mg/kg for oral gavage. Formulations for intravenous administration were filtered after preparation. […]
Sampling was performed at predose, 2, 5, 15, and 30 minutes, 1, 2, 4, and 8 hours post dose. […] Plasma was separated and stored at −60° C. to −80° C. until analyzed.
Plasma levels of the compounds were determined by LC-MS/MS. Quantification of the compounds in plasma was performed against a calibration curve generated by serial dilution of a test article DMSO stock solution into blank heparinized rat plasma (50, 100, 200, 500, 1,000, 2,000, 5,000, and 10,000 ng/mL final concentrations of free drug). […]
All data are expressed as ng/mL of the free drug. Samples that were below the limit of quantification (“bloq”) were assigned a value of zero for the mean concentration calculations.

In the case of `C=C(C)[C@@H]1CC[C@]2(C(=O)O)CC[C@]3(C)[C@H](CC[C@@H]4[C@@]5(C)CC[C@H](OC(=O)CC(C)(C)C(=O)O)C(C)(C)[C@@H]5CC[C@]43C)[C@@H]12.OCCNCCO.OCCNCCO` [DSB-2 Diethanolamine, diethanolamine disalt of DSB], the “Improvement in oral bioavailability with respect to the NMG salt of DSB” value is reported as 71.3%.
